# Values of other authors as cited in patent US5411984A, “Water soluble analogs and prodrugs of taxol” (Virginia Tech Intellectual Properties, Inc., priority 1992, dated 1995).
# Test system: tubulin
# Settings: cited from earlier work
smiles,measurement,value
COc1cc2c(c(OC)c1OC)-c1ccc(OC)c(=O)cc1[C@@H](NC(C)=O)CC2 [colchicine],effect on microtubule / tubulin polymer formation,prevent microtubule formation
